Experimental data from ChEMBL document CHEMBL4342468, “Evolution of a 4-Benzyloxy-benzylamino Chemotype to Provide Efficacious, Potent, and Isoform Selective PPARα Agonists as Leads for Retinal Disorders” (J Med Chem, 2020).

Key:
Homo sapiens [1] = organism: Homo sapiens; experiment: Selectivity index, ratio of EC50 for human PPARgamma expressed in nonhuman mammalian cells to EC50 for human PPARalpha expressed in nonhuman mammalian cells measured after 22 to 24 hrs by luciferase reporter gene assay; type: cell-based
How it was run: (§1)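 Reporter cells (non-human mammalian) expressing human PPARα, γ or δ linked to a luciferase reporter were pre-incubated 4–6 h at 37 °C, 5% CO2 in medium with 10% charcoal-stripped FBS. They were then exposed to compound in screening medium for 22–24 h, and luminescence was read. […] SI = EC50(PPARγ or δ)/EC50(PPARα).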

Homo sapiens [2] = organism: Homo sapiens; experiment: Selectivity index, ratio of EC50 for human PPARdelta expressed in nonhuman mammalian cells to EC50 for human PPARalpha expressed in nonhuman mammalian cells measured after 22 to 24 hrs by luciferase reporter gene assay; type: cell-based; how it was run: as §1

COc1ccc(COc2ccc(CNc3cccc(C(=O)O)c3)cc2)cc1
Ratio EC50 (Homo sapiens [1]): > 20
Ratio EC50 (Homo sapiens [2]): > 20
